Test results as given in ChEMBL document CHEMBL1124636, “3,4-Dihydro-2H-1-benzopyran-2-carboxylic acids and related compounds as leukotriene antagonists” (J Med Chem, 1989).

Test system: Cysteinyl leukotriene receptor (Cavia porcellus)
Experiment: Inhibitory activity to block binding of [3H]leukotriene D4 to LTD4 receptor sites in homogenized guinea pig lung at 10 uM

An inhibition of 0% was found for CCCc1c(OCCCSc2ccc([C@@H](O)[C@H](C)CC(=O)O)cc2)ccc(C(C)=O)c1O [L-649923] in this work.
